Chains of the proteins cited; added tags and fusions are not shown. Lines headed by an entry give the natural chain unless they say otherwise; changes in a name come on top.
UniProt P10189: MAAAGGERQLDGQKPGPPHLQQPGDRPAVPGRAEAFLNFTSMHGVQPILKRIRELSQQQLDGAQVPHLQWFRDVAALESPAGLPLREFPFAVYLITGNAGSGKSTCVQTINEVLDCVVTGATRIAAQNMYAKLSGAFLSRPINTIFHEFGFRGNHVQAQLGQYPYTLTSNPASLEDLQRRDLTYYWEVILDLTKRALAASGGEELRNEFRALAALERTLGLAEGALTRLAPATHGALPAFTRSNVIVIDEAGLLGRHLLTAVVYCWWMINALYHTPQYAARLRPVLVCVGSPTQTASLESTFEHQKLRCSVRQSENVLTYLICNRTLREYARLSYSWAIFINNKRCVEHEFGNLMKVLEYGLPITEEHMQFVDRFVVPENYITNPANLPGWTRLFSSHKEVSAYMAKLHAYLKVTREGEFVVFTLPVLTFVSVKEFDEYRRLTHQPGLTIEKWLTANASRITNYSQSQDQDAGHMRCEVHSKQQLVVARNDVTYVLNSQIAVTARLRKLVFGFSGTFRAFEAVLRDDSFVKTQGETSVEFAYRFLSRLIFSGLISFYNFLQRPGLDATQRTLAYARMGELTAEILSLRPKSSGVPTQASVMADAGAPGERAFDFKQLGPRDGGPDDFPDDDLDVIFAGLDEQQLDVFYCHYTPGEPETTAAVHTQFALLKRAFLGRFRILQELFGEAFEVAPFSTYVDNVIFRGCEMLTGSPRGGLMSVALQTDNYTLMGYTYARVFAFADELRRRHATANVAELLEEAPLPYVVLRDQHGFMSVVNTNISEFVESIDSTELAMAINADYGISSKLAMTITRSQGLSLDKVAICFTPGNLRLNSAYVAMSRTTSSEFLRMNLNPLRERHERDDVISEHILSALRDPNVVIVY
UniProt P10236: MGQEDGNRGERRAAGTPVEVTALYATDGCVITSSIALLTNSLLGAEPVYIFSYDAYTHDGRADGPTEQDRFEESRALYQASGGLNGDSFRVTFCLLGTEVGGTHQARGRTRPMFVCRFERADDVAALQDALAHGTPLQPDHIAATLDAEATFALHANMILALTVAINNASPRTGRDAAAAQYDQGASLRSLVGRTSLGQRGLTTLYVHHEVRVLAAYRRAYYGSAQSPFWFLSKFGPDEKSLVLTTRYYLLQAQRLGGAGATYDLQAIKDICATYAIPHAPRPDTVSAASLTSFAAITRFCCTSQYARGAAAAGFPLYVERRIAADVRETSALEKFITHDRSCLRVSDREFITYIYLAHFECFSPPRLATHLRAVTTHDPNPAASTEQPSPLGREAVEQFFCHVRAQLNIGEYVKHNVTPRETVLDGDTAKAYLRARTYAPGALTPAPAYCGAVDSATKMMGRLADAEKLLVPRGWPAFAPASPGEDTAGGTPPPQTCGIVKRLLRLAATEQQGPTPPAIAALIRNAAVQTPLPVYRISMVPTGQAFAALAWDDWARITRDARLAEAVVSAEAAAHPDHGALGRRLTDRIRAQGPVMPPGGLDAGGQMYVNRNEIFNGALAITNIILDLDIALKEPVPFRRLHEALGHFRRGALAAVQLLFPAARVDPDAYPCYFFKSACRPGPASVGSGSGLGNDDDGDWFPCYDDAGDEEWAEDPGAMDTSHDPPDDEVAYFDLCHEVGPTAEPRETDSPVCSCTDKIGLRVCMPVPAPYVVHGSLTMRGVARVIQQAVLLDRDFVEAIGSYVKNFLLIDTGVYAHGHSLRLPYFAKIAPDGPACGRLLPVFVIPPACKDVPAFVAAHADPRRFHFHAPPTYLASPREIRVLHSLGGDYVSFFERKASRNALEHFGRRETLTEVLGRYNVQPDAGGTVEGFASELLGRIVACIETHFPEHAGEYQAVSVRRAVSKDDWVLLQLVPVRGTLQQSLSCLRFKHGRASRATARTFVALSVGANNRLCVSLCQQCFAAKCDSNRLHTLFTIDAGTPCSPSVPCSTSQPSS

In patent US20020160932A1, “Uncompetitive inhibitors of helicase-primase” (priority 2000, published 2002):

Biological target: HSV-1 helicase-primase heterodimer enzyme complex (UL5-UL52-6xHis) (Human herpesvirus 1, UniProt P10189+P10236)
Assay: HSV-1 DNA-dependent ATPase assay
Settings: saturated DNA, varying ATP and inhibitor concentrations

Cc1nc(N(C)C(=O)Cc2ccc(-c3cc(F)ccc3F)cc2)sc1S(N)(=O)=O [Example 6]
inhibition of the ATPase activity, dependence on dose and ATP: dose-dependent and is moreover influenced by the ATP concentration
